The record followed here is article PMC7983974 (Basic & Clinical Pharmacology & Toxicology, 2020).

This series deals with T1, UGT-mediated glucuronidation of molidustat (M1 formation) (Homo sapiens, UniProt P22309).
T1 sequence (P22309 26-533): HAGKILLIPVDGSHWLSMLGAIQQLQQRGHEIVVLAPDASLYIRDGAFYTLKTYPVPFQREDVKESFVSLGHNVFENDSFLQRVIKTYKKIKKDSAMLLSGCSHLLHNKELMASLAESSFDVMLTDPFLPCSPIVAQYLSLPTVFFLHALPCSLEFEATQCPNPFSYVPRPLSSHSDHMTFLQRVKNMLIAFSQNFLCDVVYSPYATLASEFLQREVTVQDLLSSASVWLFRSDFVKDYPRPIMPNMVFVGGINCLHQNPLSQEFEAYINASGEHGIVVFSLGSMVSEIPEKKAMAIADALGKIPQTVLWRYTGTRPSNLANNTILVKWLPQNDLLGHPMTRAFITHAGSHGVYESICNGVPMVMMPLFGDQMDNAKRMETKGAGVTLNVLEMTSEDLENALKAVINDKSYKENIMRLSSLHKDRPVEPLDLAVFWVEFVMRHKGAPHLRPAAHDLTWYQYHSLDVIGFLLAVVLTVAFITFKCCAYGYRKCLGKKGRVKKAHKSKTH
In words: Inhibition of M1 formation from molidustat in pooled human liver microsomes. The format is in vitro ADME. The settings on record: probe molidustat 5 µmol/L (formation of M1), IC50, pooled HLMs 0.3 mg/mL, N=1, Table 1. In general terms: Liver microsomes are a subcellular fraction often used to study metabolism.

The compound `CNC(=O)c1ccccc1Sc1ccc2c(/C=C/c3ccccn3)n[nH]c2c1` [Axitinib] had an IC50 at 30 min of 1500 nM.

Broadly, the IC50 is the point on the concentration scale where inhibition reaches its midpoint. The low end stands for greater potency, the high end for weaker potency.
